Our source for the IC50 and EC50 values is patent publication US9815835B2, “Substituted polycyclic carbamolypyridone derivative” (priority 2009, dated 2017).

Values joined by “and” are separate entries in the source; they are usually repeats but may differ in a detail not shown here. Equal values may be shown once.

For orientation: IC50 means the concentration at which inhibition is half-maximal.

In the first assay the target is cap-dependent endonuclease (RNP fraction containing PB1•PB2•PA complex) (Influenza A virus, UniProt P15659). Nature of the assay: biochemical. More on the design: species or system A/WSN/33 virus. The following applies: CEN IC50.
On to `C[C@H](N1CN([C@H]2c3cc(F)ccc3CSc3ccc(F)cc32)n2ccc(=O)c(O)c2C1=O)C(F)(F)F` [Example 418], for which the IC50 stood at 121 nM.
In the case of `CN1CN(C2c3ccccc3CSc3ccccc32)n2ccc(=O)c(O)c2C1=O` (stereo not shown) [Example 321], half-maximal inhibition (IC50) required 19 nM.
Compound `CC(C)N1CN(C2c3ccccc3CSc3c(Cl)cccc32)n2ccc(=O)c(O)c2C1=O` (stereo not shown) [Example 326] displayed an IC50 of 43 nM.
`CC(C)C[C@H](CO)N1CN(C2c3ccccc3CSc3ccccc32)n2ccc(=O)c(O)c2C1=O` (stereo partly shown) [Example 374] returned an IC50 of 137 nM.
Turning to `CC(C)N1C(=O)c2c(O)c(=O)ccn2N(C2c3ccccc3CCc3ccccc32)C1CCN` (stereo not shown) [Example 533], inhibition was half-maximal at 65 nM (IC50).
In turn, `C[C@H](N1CN([C@H]2c3ccccc3CSc3ccccc32)n2ccc(=O)c(O)c2C1=O)C(F)(F)F` [Example 416] had an IC50 of 112 nM.
For `CC(N1CN(C2c3ccccc3CCc3ccccc32)n2ccc(=O)c(O)c2C1=O)C(F)(F)F` (stereo not shown) [Example 274], the IC50 is 38 nM and 157 nM.
Compound `CN1CN(C2c3ccccc3CSc3c(F)cccc32)n2ccc(=O)c(O)c2C1=O` (stereo not shown) [Example 354] displayed a 50% inhibitory concentration (IC50) of 25 nM.
On the same count and under the same terms, as for `CC(CN(C)C)N1CN(C2c3ccccc3CSc3ccccc32)n2ccc(=O)c(O)c2C1=O` (stereo not shown) [Example 480], the figure is 151 nM; as for `C[C@@H](N1CN([C@H]2c3ccc(C(F)(F)F)cc3CSc3ccccc32)n2ccc(=O)c(O)c2C1=O)C(F)(F)F` [Example 432], 155 nM.
`C[C@@H](N1CN([C@H]2c3ccccc3COc3c(F)cccc32)n2ccc(=O)c(O)c2C1=O)C(F)(F)F` [Example 425] displayed a concentration for half-maximal inhibition (IC50) of 183 nM.
On the same count and under the same terms, as for `CC(CO)N1CN(C2c3ccccc3CCc3ccccc32)n2ccc(=O)c(O)c2C1=O` (stereo not shown) [Example 362], the figure is 84 nM.
In turn, `Cc1noc(CN2CN(C3c4ccccc4CCc4ccccc43)n3ccc(=O)c(O)c3C2=O)n1` [Example 270] registered a concentration for half-maximal inhibition (IC50) of 58 nM.
With `CN(C)CC1N(CCO)C(=O)c2c(O)c(=O)ccn2N1C1c2ccccc2CCc2ccccc21` (stereo not shown) [Example 551], half-maximal inhibition (IC50) was put at 41 nM.
On the same count and under the same terms, with `O=C1c2c(O)c(=O)ccn2N(C2c3ccccc3CCc3ccccc32)CN1CC(O)CO` (stereo not shown) [Example 364] the figure was 112 nM.
Same read-out and setting: as for `CCN(CC)CCC1N(C(C)C)C(=O)c2c(O)c(=O)ccn2N1C1c2ccccc2CCc2ccccc21` (stereo not shown) [Example 538], the figure is 196 nM; as for `CC(C)=CCN1C[C@H](C(c2ccccc2)c2ccccc2)n2cc(C(=O)O)c(=O)c(O)c2C1=O` [Example 182], 99 nM.
The compound `C[C@@H](N1CN(C2c3ccccc3CSc3ccc(F)cc32)n2ccc(=O)c(O)c2C1=O)C(F)(F)F` (stereo partly shown) [Example 345] came in with a half-maximal inhibitory concentration (IC50) of 97 nM.
As for `CC(=O)OCCN1CN(C2c3ccccc3CCc3ccccc32)n2ccc(=O)c(O)c2C1=O` [Example 276], inhibition was half-maximal at 53 nM (IC50).
For `C[C@H](N1CN([C@H]2c3ccccc3CSc3cc(F)ccc32)n2ccc(=O)c(O)c2C1=O)C(F)(F)F` [Example 459], the IC50 stood at 287 nM.
Still for that read-out and setting: as for `COCC(COC)N1CN(C2c3cc(F)ccc3CSc3ccc(F)cc32)n2ccc(=O)c(O)c2C1=O` (stereo not shown) [Example 340], the figure is 101 nM; as for `C[C@H](N1CN([C@H]2c3ccccc3CSc3c(F)cccc32)n2ccc(=O)c(O)c2C1=O)C(F)(F)F` [Example 453], 186 nM.
The compound `O=C(O)c1cn2c(c(O)c1=O)C(=O)N1CCCCN1C2C(c1ccccc1)c1ccccc1` (stereo not shown) [Example 507] displayed an IC50 of 63 nM.
Same read-out and setting: with `COCC(COC)N1CN(C2c3ccccc3CSc3ccccc32)n2ccc(=O)c(O)c2C1=O` (stereo not shown) [Example 318] the figure was 130 nM; with `CC(C)N1CN(C2c3ccccc3COc3c(F)cccc32)n2ccc(=O)c(O)c2C1=O` (stereo not shown) [Example 403], 90 nM.
Compound `CC(CN(C)C)N1CN(C2c3ccccc3CSc3c(Cl)cccc32)n2ccc(=O)c(O)c2C1=O` (stereo not shown) [Example 481] registered an IC50 of 114 nM.
In turn, `C[C@@H](N1CN([C@H]2c3cc(F)ccc3CSc3ccc(F)cc32)n2ccc(=O)c(O)c2C1=O)C(F)(F)F` [Example 462] showed a half-inhibitory concentration (IC50) of 69 nM.
As for `COCCN1CN(C2c3ccccc3CCc3ccccc32)n2ccc(=O)c(O)c2C1=O` [Example 258], inhibition was half-maximal at 42 nM (IC50).
Take `Cc1nnc(CN2CN(C3c4ccccc4CCc4ccccc43)n3ccc(=O)c(O)c3C2=O)o1` [Example 256]: the half-maximal inhibitory concentration (IC50) amounted to 38 nM.
On to `CC(C)N1CN(C2c3ccc(Cl)cc3COc3ccccc32)n2ccc(=O)c(O)c2C1=O` (stereo not shown) [Example 409], for which half-maximal inhibition (IC50) was put at 93 nM.

Staying with this assay, now noted: RNP from A/WSN/33 virus, capped Cy3/BHQ2 30mer RNA substrate, 60 minutes at room temperature; read-out: CEN IC50.
Regarding `O=C1c2c(O)c(=O)ccn2N(C2c3ccccc3CSc3ccccc32)CN1CCCF` (stereo not shown) [Example 298], the 50% inhibitory concentration (IC50) came out at 44 nM.
For `CC(C)N1CN(C2c3ccc(F)cc3CCc3cc(F)ccc32)n2ccc(=O)c(O)c2C1=O` [Example 284], the IC50 was determined as 42 nM.
For `CS(=O)(=O)CCN1CN(C2c3ccccc3CCc3ccccc32)n2ccc(=O)c(O)c2C1=O` [Example 269], the half-maximal inhibitory concentration (IC50) was 73 nM.
Still for that read-out and setting: as for `O=C1c2c(O)c(=O)ccn2N(C2c3ccccc3CCc3ccccc32)CN1CC(F)(F)F` [Example 263], the figure is 85 nM; as for `COCCCN1CN(C2c3ccccc3CCc3ccccc32)n2ccc(=O)c(O)c2C1=O` [Example 267], 29 nM.
`CC(C)N1CN(Cc2ccc(Cl)c(Cl)c2)n2ccc(=O)c(O)c2C1=O` [Example 199]: the half-inhibitory concentration (IC50) was determined as 236 nM.
`O=C1c2c(O)c(=O)ccn2N(C2c3ccccc3CSc3ccccc32)CN1CC(F)(F)F` (stereo not shown) [Example 306]: the concentration for half-maximal inhibition (IC50) amounted to 76 nM.
Take `O=C1c2c(O)c(=O)ccn2N(C2c3ccccc3CCc3ccccc32)CN1CCF` [Example 262]: the IC50 was determined as 32 nM.
In the case of `C[C@H](N1CN([C@H]2c3ccc(F)cc3CSc3ccccc32)n2ccc(=O)c(O)c2C1=O)C(F)(F)F` [Example 460], the 50% inhibitory concentration (IC50) was 85 nM.
For `CCC(C)N1C[C@H](C(c2ccccc2)c2ccccc2)n2cc(C(=O)O)c(=O)c(O)c2C1=O` (stereo partly shown) [Example 186], the concentration for half-maximal inhibition (IC50) was 85 nM.
For `CC(C)OCCN1C[C@H](C(c2ccccc2)c2ccccc2)n2cc(C(=O)O)c(=O)c(O)c2C1=O` [Example 184], the IC50 was found to be 55 nM.
`O=C1c2c(O)c(=O)ccn2N(C2c3ccccc3CSc3c(Cl)cccc32)CN1CCO` (stereo not shown) [Example 382]: the IC50 amounted to 32 nM.
In the case of `COCCN1CN(C2c3ccccc3COc3cc(F)ccc32)n2ccc(=O)c(O)c2C1=O` (stereo not shown) [Example 397], the concentration for half-maximal inhibition (IC50) is 55 nM.

Another assay has as its system influenza virus. The assay can be described thus: microbe, parasite or virus in culture. Format: cell-based, influenza virus (MDBK or MDCK cells). The following applies: unidentified influenza virus, 72 h, read-out: CPE EC50, effective concentration to achieve 50% CPE inhibition, 3 days incubation, WST-8.
As for `C[C@H](N1CN([C@H]2c3cc(F)ccc3CSc3ccc(F)cc32)n2ccc(=O)c(O)c2C1=O)C(F)(F)F` [Example 418], the EC50 was found to be 72 nM.
In the case of `CN1CN(C2c3ccccc3CSc3ccccc32)n2ccc(=O)c(O)c2C1=O` (stereo not shown) [Example 321], the EC50 is 19 nM.
On to `C[C@H](N1CN([C@H]2c3ccccc3CSc3cc(F)ccc32)n2ccc(=O)c(O)c2C1=O)C(F)(F)F` [Example 459], for which the EC50 came out at 48 nM.
